Tests used:
MDA MB 435 cells = assay: Apoptosis induction in carcinoma cells (cross-linked IgG, 16-24 hours, Annexin V/PI); format: cell-based, human; settings: MDA MB 435, cross-linked IgG
Protocol: (§1) The prostate carcinoma cell line PC-3 was grown in Complete Growth Medium (RPMI 1640, supplemented with 10% FCS, 10 mM HEPES, and 2 mM L-Glutamine) to 80% confluency in a 6 well plate. The prostate carcinoma cell line DU145 was grown in MEM with Earl's salts, supplemented with 10% FCS, 1 mM sodium pyruvate, and 1 mM non-essential amino acids and the derivate of a melanoma cell line MDA MB 435 was grown in DMEM supplemented with 10% FCS.
(§2) For apoptosis assays cells were washed in PBS and serially diluted B11 IgG1 (or B1 IgG1, Trastuzumab or negative antibody control for controls) was added to individual wells and binding was allowed during a 1-2 h incubation at 4° C. The cells were washed and Complete Growth Medium was added, containing cross-linking antibody, Fab′2 Goat anti-Human Fab′2, at 10 μg/ml. Cells were incubated in a humidified atmosphere, with 5% CO2 at 37° C., for 16-24 hours. […] The percentage apoptotic cells was determined by the formula: % apoptotic cells=100−% AF488−AV/PI−/−.
(§3) Cells were seeded in 6 well plates with Complete Growth Medium three days before the onset of the experiment. […] Cells were washed in ice-cold PBS, subjected to Annexin V/propidium iodide staining, and analysed for viability/apoptosis as described in example 5 above.

DU145 cells = assay: as above; format: cell-based, human
Protocol: as §1, §2, §3

In the case of “Trastuzumab IgG1: control antibody in carcinoma apoptosis assays; trastuzumab targets Her-2 [reference compound]”, the “apoptosis induction” value (MDA MB 435 cells) was “not able to induce apoptosis” and the “apoptosis induction” value (DU145 cells) was “not able to induce apoptosis”.

Source: patent US9803013B2, “Biological materials and uses thereof” (BioInvent International AB, priority 2005, dated 2017)
